# Source: ChEMBL document CHEMBL5036320, “Discovery of Icenticaftor (QBW251), a Cystic Fibrosis Transmembrane Conductance Regulator Potentiator with Clinical Efficacy in Cystic Fibrosis and Chronic Obstructive Pulmonary Disease” (J Med Chem, 2021)
# Sequences of proteins named here, by UniProt entry; tags and fusion partners are left off. A line that says so, or that is headed by a name, gives the form on record, which may keep a tag or linker.
# UniProt P13569, whole entry: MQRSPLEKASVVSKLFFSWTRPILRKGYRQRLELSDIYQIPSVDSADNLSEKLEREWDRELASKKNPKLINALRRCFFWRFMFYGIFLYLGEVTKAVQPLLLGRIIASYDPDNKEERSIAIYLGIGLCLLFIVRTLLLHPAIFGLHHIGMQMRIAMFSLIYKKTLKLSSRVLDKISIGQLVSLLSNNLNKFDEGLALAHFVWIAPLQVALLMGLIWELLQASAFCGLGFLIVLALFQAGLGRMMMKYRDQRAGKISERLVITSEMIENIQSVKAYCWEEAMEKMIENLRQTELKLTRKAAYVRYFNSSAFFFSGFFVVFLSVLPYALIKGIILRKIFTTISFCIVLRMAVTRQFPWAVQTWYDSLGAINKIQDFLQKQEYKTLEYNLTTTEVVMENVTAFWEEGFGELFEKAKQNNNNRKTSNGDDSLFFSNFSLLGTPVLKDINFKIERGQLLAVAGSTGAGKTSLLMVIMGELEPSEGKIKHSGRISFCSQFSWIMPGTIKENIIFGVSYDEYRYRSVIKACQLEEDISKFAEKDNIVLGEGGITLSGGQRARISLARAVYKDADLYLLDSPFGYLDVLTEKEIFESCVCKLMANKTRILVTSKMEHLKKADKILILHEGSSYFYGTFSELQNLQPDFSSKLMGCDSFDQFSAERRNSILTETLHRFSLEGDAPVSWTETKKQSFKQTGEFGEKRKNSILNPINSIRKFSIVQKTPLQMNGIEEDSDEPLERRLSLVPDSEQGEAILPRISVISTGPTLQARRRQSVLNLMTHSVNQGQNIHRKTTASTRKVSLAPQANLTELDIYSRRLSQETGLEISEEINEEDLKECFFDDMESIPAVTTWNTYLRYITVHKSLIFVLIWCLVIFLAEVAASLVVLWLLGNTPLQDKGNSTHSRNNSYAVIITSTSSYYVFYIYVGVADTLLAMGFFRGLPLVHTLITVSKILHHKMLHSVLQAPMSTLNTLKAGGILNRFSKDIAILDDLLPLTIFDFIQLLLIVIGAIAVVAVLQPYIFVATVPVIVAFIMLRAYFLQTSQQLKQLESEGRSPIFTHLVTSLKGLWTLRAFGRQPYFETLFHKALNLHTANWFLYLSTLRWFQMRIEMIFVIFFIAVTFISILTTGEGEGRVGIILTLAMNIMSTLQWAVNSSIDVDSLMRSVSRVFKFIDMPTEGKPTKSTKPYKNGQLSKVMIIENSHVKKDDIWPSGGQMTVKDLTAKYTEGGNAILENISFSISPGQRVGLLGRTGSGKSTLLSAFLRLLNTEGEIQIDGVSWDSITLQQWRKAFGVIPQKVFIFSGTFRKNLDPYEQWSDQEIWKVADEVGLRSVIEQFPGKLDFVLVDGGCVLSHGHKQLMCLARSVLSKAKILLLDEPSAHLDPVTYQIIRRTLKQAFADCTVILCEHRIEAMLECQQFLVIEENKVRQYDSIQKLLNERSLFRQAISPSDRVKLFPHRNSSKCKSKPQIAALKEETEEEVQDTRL
# UniProt P13569, as listed by the source: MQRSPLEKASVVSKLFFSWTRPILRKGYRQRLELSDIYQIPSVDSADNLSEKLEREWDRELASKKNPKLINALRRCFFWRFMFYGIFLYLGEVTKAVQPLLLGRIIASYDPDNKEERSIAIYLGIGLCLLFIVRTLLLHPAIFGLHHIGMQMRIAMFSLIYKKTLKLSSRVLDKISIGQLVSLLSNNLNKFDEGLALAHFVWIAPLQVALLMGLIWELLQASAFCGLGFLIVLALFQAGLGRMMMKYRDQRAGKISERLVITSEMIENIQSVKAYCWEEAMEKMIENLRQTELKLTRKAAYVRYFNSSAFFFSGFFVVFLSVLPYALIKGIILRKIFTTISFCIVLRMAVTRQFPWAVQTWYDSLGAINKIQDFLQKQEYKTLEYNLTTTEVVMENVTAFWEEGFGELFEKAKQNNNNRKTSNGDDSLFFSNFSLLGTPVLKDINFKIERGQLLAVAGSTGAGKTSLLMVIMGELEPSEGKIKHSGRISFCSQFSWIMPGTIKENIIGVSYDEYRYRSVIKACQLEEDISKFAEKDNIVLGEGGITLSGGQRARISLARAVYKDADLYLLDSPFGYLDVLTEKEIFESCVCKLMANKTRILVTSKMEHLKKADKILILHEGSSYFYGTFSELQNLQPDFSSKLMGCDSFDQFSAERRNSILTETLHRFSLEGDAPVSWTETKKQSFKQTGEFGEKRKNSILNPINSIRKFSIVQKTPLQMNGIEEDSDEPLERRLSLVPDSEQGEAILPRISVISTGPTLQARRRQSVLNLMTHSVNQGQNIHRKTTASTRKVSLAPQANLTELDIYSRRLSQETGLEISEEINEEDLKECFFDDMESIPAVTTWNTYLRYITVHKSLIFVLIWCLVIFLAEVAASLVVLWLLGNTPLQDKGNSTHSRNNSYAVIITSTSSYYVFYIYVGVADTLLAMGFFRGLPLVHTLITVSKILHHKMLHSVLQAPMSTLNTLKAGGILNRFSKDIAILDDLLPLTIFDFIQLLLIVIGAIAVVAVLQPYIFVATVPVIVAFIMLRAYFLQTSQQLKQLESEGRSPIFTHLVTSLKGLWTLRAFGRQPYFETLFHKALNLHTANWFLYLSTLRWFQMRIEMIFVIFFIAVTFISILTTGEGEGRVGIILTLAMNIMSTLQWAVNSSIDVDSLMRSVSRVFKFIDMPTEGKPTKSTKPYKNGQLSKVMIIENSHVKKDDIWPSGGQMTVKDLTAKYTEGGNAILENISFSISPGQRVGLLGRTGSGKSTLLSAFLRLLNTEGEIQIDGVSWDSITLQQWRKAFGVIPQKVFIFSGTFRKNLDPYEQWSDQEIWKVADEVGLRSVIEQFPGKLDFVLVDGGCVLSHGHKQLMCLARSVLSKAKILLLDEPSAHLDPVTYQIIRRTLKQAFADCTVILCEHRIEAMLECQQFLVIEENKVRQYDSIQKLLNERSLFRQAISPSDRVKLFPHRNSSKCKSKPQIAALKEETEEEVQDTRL
# How the values were obtained:
# Format in all cases: cell-based
# [1] = biological target: Cystic fibrosis transmembrane conductance regulator (Homo sapiens, UniProt P13569); assay: Potentiation of wild-type CFTR (unknown origin) expressed in FRT cells assessed as chloride transport by measuring membrane potential in presence of forskolin
# [2] = biological target: T1, Cystic fibrosis transmembrane conductance regulator (Homo sapiens, UniProt P13569, F508DEL); assay: Potentiation of CFTR F508del mutant (unknown origin) expressed in CHO cells assessed as chloride transport by measuring membrane potential preincubated for 5 mins followed by forskolin addition by FLIPR assay
# [3] = biological target: T1, Cystic fibrosis transmembrane conductance regulator; assay: Potentiation of CFTR F508del mutant (unknown origin) expressed in CHO cells assessed as chloride transport by measuring membrane potential incubated for 5 to 30 mins in presence of forskolin by Quattro assay
# [4] = biological target: T1, Cystic fibrosis transmembrane conductance regulator; assay: Potentiation of CFTR F508del mutant (unknown origin) expressed in FRT cells assessed as chloride transport by measuring membrane potential in presence of forskolin
smiles,measurement,setting,value
O=c1c(-c2ccc(O)cc2)coc2cc(O)cc(O)c12 [GENISTEIN],EC50,[1],14.2 µM
same,EC50,[2],8.2 µM
same,EC50,[3],8.48 µM
same,EC50,[4],6.17 µM
